For this experiment, the target named is Human GLP-1 receptor stably expressing cells (hGLP-1R/CHO-K1 cells) (Homo sapiens, UniProt P43220). Description: Measurement of GLP-1 receptor agonist activity (cAMP assay). As for the experimental part: Test Example 1: Measurement of GLP-1 Receptor Agonist Activity
Human GLP-1 receptor stably expressing cells (hGLP-1R/CHO-K1 cells) are cultured in an a-MEM medium (Sigma) containing 10% FBS (Hyclone), 2% GlutaMAX (Gibco), 1% G418 (Nacalai Tesque), and 1% Penicillin-Streptomycin Mixed Solution (Sigma) at 37° C. under 5% CO2 conditions, and recovered by treating a 10 fold diluted 5.0 g/1-trypsin/5.3 mmol/1-EDTA solution (Nacalai Tesque) and cryopreserved.
A DMSO solution containing the compound of the present invention or human GLP-1 (7-36) (Phoenix Pharmaceuticals) is dispensed into a 384-well microplate (Greiner) at 62.5 nL/well, and in addition, 400 μM Forskolin (Nacalai Tesque) is dispensed therein at 7.5 nL/well. […] The solution was incubated at 37° C. for 1 hour and intracellular cAMP concentration is measured using cAMP Gs dynamic kit (Cisbio) according to the protocol attached to the product. Specifically, a cAMP-d2/Anti-cAMP-Cryptate (1/1) mixture solution is added in a total amount of 6 μL/well, and is incubated at room temperature for 1 hour, and then, time-resolved fluorescence is measured using PHERAstar (BMG Labtech). […]

The chains behind the UniProt entries cited, without tags or fusion partners. Residues count along the entry.
UniProt P43220, 24-463 limits assumed: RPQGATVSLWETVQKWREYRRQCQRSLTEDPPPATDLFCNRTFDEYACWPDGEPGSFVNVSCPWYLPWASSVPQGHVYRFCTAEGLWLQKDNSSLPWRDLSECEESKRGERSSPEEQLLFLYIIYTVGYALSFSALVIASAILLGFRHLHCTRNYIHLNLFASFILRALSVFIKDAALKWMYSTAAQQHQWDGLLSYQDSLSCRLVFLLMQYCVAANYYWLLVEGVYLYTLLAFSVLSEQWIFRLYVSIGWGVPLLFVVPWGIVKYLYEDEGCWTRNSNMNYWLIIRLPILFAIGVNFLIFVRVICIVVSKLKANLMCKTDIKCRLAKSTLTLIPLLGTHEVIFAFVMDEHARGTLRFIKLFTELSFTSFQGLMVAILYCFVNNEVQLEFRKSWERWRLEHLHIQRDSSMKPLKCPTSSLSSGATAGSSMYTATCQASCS

SMILES strings stand for the structures.

`C[C@H]1c2nc(OCc3ncn(C)n3)c(C(F)(F)F)cc2CCN1Cc1nc2ccc(C(=O)O)cc2n1C[C@@H]1CCO1` displayed an EC50 (increase in cAMP concentration in hGLP-1R/CHO-K1 cells, 37° C. 1 hour) of 21.3 nM. The same molecule returned an Emax (maximum effect, cAMP with 2 nM human GLP-1 (7-36) = 100%, DMSO only = 0%) of 110%.

Values taken from patent US20260097037A1, “FUSED RING COMPOUND HAVING GLP-1 RECEPTOR AGONIST EFFECT” (Shionogi & Co., Ltd., priority 2022, published 2026).
